Our source for the solubility in water values is patent US9139551B2, “Preparation of a new class of water-soluble ammonium 2,3-dihydroxy-5-((2R,3R)-3,5,7-trihydroxy-4-oxochroman-2-yl) phenolates and their biological activity of alcohol elimination” (priority 2014, dated 2015).

A short description of the series: Solubility in water. As to conditions: room temperature.

In the case of “triethylammonium 2,3-dihydroxy-5-((2R,3R)-3,5,7-trihydroxy-4-oxochroman-2-yl)phenolate”, the solubility in water turned out to be 6500 µg/mL.
